Patent US20130315918A1 (published 2013)
Residue numbers refer to the chain shown, from its start. Values joined by “and” are separate entries in the source; they are usually repeats but may differ in a detail not shown here. Equal values may be shown once.

Protein sequences, listed by entry. Tags and fused reporters are not part of them. Chains listed by the source or under a name are the forms on record and can include a tag or linker. Residues count along the entry.
UniProt Q00731, other isoform, or with tags, fused parts or gaps limits assumed: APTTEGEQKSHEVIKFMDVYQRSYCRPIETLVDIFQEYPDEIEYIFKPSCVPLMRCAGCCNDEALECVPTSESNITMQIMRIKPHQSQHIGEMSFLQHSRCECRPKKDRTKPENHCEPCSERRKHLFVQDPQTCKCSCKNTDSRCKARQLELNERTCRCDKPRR
UniProt P15692, 214-315 limits assumed: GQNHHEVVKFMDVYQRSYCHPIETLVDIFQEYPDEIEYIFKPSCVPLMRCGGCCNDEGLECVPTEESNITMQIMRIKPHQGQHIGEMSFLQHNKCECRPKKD
UniProt P15692, other isoform, or with tags, fused parts or gaps limits assumed: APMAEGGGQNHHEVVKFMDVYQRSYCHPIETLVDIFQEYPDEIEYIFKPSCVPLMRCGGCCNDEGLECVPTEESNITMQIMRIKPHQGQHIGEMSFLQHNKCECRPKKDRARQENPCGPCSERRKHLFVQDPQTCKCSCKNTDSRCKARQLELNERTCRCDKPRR
UniProt P15692, 207-315 limits assumed: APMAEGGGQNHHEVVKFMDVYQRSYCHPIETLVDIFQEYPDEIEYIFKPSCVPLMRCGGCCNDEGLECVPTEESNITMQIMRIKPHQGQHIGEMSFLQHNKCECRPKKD

Tests used:
murine VEGF (mVEGF) [1] = molecular target: T1, murine VEGF (mVEGF) (mouse, UniProt Q00731-2 27-190, limits assumed); assay: BIAcore-3000, Fab over immobilized mVEGF
T1 construct: also called mouse VEGF; mVEGF-A

[2] = molecular target: T2, human VEGF residues 8-109 (hVEGF8-109) (human, UniProt P15692 214-315); assay: BIAcore-3000, Fab over immobilized hVEGF8-109
T2 construct: range 8-109; Dimer in the crystals (one VEGF dimer with 2 Fab); Range counts on the mature protein, not on the precursor

human VEGF (hVEGF) [3] = molecular target: T3, human VEGF (hVEGF) (human, UniProt P15692-4 27-191, limits assumed); assay: cell-based or functional assay
murine VEGF (mVEGF) [4] = molecular target: T1, murine VEGF (mVEGF); assay: Fab and mVEGF (Table 1)
murine VEGF (mVEGF) [5] = molecular target: T1, murine VEGF (mVEGF); assay: solution phase competition assay
murine VEGF (mVEGF) [6] = molecular target: T1, murine VEGF (mVEGF); assay: Fab and mVEGF, koff/kon (Table 1)
human VEGF (hVEGF) [7] = molecular target: T3, human VEGF (hVEGF); assay: competition-binding phage ELISA at 25 C
murine VEGF (mVEGF) [8] = molecular target: T1, murine VEGF (mVEGF); assay: competition-binding phage ELISA at 25 C
murine VEGF (mVEGF) [9] = molecular target: T1, murine VEGF (mVEGF); assay: Fab and mVEGF; value in parentheses, method not explained (Table 1)
murine VEGF (mVEGF) [10] = molecular target: T1, murine VEGF (mVEGF); assay: Fab and mVEGF; on rate by fluorescence quenching in solution, with BIAcore SPR (Table 1)
human VEGF (hVEGF) [11] = molecular target: T3, human VEGF (hVEGF); assay: BIAcore-3000, Fab over immobilized hVEGF
murine VEGF (mVEGF) [12] = molecular target: T1, murine VEGF (mVEGF); assay: data not shown
human VEGF (hVEGF) [13] = molecular target: T3, human VEGF (hVEGF); assay: SPR
murine VEGF (mVEGF) [14] = molecular target: T1, murine VEGF (mVEGF); assay: SPR
murine VEGF (mVEGF) [15] = molecular target: T1, murine VEGF (mVEGF); assay: SPR (Table 1)
murine VEGF (mVEGF) [16] = molecular target: T1, murine VEGF (mVEGF); assay: cell-based or functional assay
murine VEGF (mVEGF) [17] = molecular target: T1, murine VEGF (mVEGF); assay: fluorescence quenching assay
murine VEGF (mVEGF) [18] = molecular target: T1, murine VEGF (mVEGF); assay: Fab and mVEGF; on rate by fluorescence quenching in solution (Table 1)
human VEGF (hVEGF) [19] = molecular target: T3, human VEGF (hVEGF); assay: SPR, fluorescence quenching and solution competition
human VEGF (hVEGF) [20] = molecular target: T3, human VEGF (hVEGF); assay: BIAcore (FIG. 8)
murine VEGF (mVEGF) [21] = molecular target: T1, murine VEGF (mVEGF); assay: BIAcore (FIG. 8)
human VEGF (hVEGF) [22] = molecular target: T3, human VEGF (hVEGF); assay: binding kinetics (FIG. 32)
murine VEGF (mVEGF) [23] = molecular target: T1, murine VEGF (mVEGF); assay: solution competition binding assay, Fab on phage (FIG. 7)
[24] = molecular target: T4, phage-displayed hVEGF (hVEGF1-109) (human, UniProt P15692 207-315); assay: competitive solution binding ELISA with hVEGF displaying phage
T4 construct: range 1-109; Fusion partner on phage not described; also called hVEGF displaying phage; hVEGF-phage

human VEGF (hVEGF) [25] = molecular target: T3, human VEGF (hVEGF); assay: solution competition binding assays with phage-displayed proteins (FIG. 7)

B1: YADS1 Fab (Fab, V domains shown)
VH: EVQLVESGGGLVQPGGSLRLSCAASGFDIYDDDIHWVRQAPGKGLEWVAYIAPSYGYTDYADSVKGRFTISADTSKNTAYLQMNSLRAEDTAVYYCSRSSDASYSYSAMDYWGQGTLVTVSS
VL: DIQMTQSPSSLSASVGDRVTITCRASQASYSSVAWYQQKPGKAPKLLIYAASYLYSGVPSRFSGSGSGTDFTLTISSLQPEDFATYYCQSSASPATFGQGTKVEIKR
notes: Purified free Fab from E. coli
Kd (murine VEGF (mVEGF) [1]): > 1000 nM
Kd [2]: 1.8 nM
koff [2]: 0.0005 s⁻¹
kon [2]: 300000 M⁻¹ s⁻¹

B2: YADS2 Fab (Fab, V domains shown)
VH: EVQLVESGGGLVQPGGSLRLSCAASGFAISDYDIHWVRQAPGKGLEWVADIAPYAGATAYADSVKGRFTISADTSKNTAYLQMNSLRAEDTAVYYCSRSSYAYYAAMDYWGQGTLVTVSS
VL: DIQMTQSPSSLSASVGDRVTITCRASQSYAYAVAWYQQKPGKAPKLLIYDASYLYSGVPSRFSGSGSGTDFTLTISSLQPEDFATYYCQQAYSSPDTFGQGTKVEIKR
VEGF induced HUVEC proliferation, IC50 (human VEGF (hVEGF) [3]): ~12 nM
Kd [2]: 10 nM
koff [2]: 0.01 s⁻¹
kon [2]: 1e+06 M⁻¹ s⁻¹

B3: YADS3 Fab (Fab, V domains shown)
VH: B2 VH with A28S, D50A, A55S, A57S, A59Y, A105S
VL: B2 VL with S28A, Y29S, A30Y, A32D, D50A, A91Y, S93Y, S94A, D96A
Kd (murine VEGF (mVEGF) [1]): 3.7 nM
koff (murine VEGF (mVEGF) [1]): 0.005 s⁻¹
kon (murine VEGF (mVEGF) [1]): 2e+06 M⁻¹ s⁻¹
Kd [2]: 2 nM
koff [2]: 0.003 s⁻¹
kon [2]: 1e+06 M⁻¹ s⁻¹

B4: G6 Fab (Fab, V domains shown)
VH: EVQLVESGGGLVQPGGSLRLSCAASGFTISDYWIHWVRQAPGKGLEWVAGITPAGGYTYYADSVKGRFTISADTSKNTAYLQMNSLRAEDTAVYYCARFVFFLPYAMDYWGQGTLVTVSS
VL: B2 VL with S28D, Y29V, A30S, Y31T, D50S, Y53F, A91S, S93T, S94T, D96P
notes: also called G6 antibody; FabG6
koff (murine VEGF (mVEGF) [4]): 0.00016 s⁻¹
IC50 (murine VEGF (mVEGF) [5]): 0.67 nM
Kd (murine VEGF (mVEGF) [6]): 0.91 nM
IC50 (human VEGF (hVEGF) [7]): 0.5 to 1 nM
IC50 (murine VEGF (mVEGF) [8]): 0.5 to 1 nM
kon (murine VEGF (mVEGF) [9]): 193000 M⁻¹ s⁻¹
kon (murine VEGF (mVEGF) [10]): 175000 M⁻¹ s⁻¹

B5: Fab-YS1 (Fab, V domains shown)
VH: EVQLVESGGGLVQPGGSLRLSCAASGFSISSSSIHWVRQAPGKGLEWVAYISPSSGSTSYADSVKGRFTISADTSKNTAYLQMNSLRAEDTAVYYCSRYYSSSYYYSYYYAMDYWGQGTLVTVSS
VL: B2 VL with A91S, S93Y, D96Y
notes: also called YS1 Fab
Kd (human VEGF (hVEGF) [11]): 60 nM
koff (human VEGF (hVEGF) [11]): 0.0028 s⁻¹
kon (human VEGF (hVEGF) [11]): 50000 M⁻¹ s⁻¹

B6: B20 Fab (Fab, V domains shown)
VH: EVQLVESGGGLVQPGGSLRLSCAASGFTINASWIHWVRQAPGKGLEWVGAIYPYSGYTNYADSVKGRFTISADTSKNTAYLQMNSLRAEDTAVYYCARWGHSTSPWAMDYWGQGTLVTVSS
VL: B2 VL with S28D, Y29V, A30S, Y31T, D50S, Y53F, A91S, S93T, S94T, D96P
notes: also called B20 antibody; B20 clone
binding result (murine VEGF (mVEGF) [12]): binds

B7: G6-31 Fab (Fab, V domains shown)
VH: B4 VH
VL: B2 VL with S28D, Y29V, A30S, Y31T, D50S, Y53F, A91G, S93G, S94N, D96F
notes: To be rechecked; also called Fab-G6-31
fold improvement in off rate over G6 (human VEGF (hVEGF) [13]): 8 fold
fold improvement in off rate over G6 (murine VEGF (mVEGF) [14]): 13 fold
fold improvement in off-rate over G6 (murine VEGF (mVEGF) [15]): ~4 fold
HuVEC growth inhibition, improvement over G6 (human VEGF (hVEGF) [3]): 100 fold
HuVEC growth inhibition, improvement over G6 (murine VEGF (mVEGF) [16]): 100 fold
koff (murine VEGF (mVEGF) [4]): 3.5e-05 s⁻¹
fold improvement in on-rate over G6 (murine VEGF (mVEGF) [17]): 8 fold
IC50 (murine VEGF (mVEGF) [5]): 0.03 nM
fold improvement in IC50 over G6 (murine VEGF (mVEGF) [5]): 20 to 60 fold
Kd (murine VEGF (mVEGF) [6]): 0.016 nM
kon (murine VEGF (mVEGF) [18]): 2.16e+06 M⁻¹ s⁻¹

B8: G6-8 Fab (Fab, V domains shown)
VH: B4 VH
VL: B2 VL with S28D, Y29V, A30S, Y31T, D50S, Y53F, A91G, Y92A, S93G, D96L
notes: To be rechecked
koff (murine VEGF (mVEGF) [4]): 0.000129 s⁻¹
fold improvement in on-rate over G6 (murine VEGF (mVEGF) [17]): 6 fold
Kd (murine VEGF (mVEGF) [6]): 0.077 nM
binding result (human VEGF (hVEGF) [19]): binds
kon (murine VEGF (mVEGF) [18]): 1.68e+06 M⁻¹ s⁻¹

B9: G6-23 Fab (Fab, V domains shown)
VH: B4 VH
VL: DIQMTQSPSSLSASVGDRVTITCRASQDVSTAVAWYQQKPGKAPKLLIYSASFLYSGVPSRFSGSGSGTDFTLTISSLQPEDFATYYCKQGYANPWTFGQGTKVEIKR
notes: also called Fab-G6-23; FabG6-23
fold better Kd than G6 (human VEGF (hVEGF) [20]): 7 fold
fold better Kd than G6 (murine VEGF (mVEGF) [21]): 7 fold
HuVEC growth inhibition, improvement over G6 (human VEGF (hVEGF) [3]): 100 fold
HuVEC growth inhibition, improvement over G6 (murine VEGF (mVEGF) [16]): 100 fold
koff (human VEGF (hVEGF) [22]): 0.0001 s⁻¹ and 0.0002 s⁻¹
kon (human VEGF (hVEGF) [22]): > 1e+06 M⁻¹ s⁻¹
koff (murine VEGF (mVEGF) [4]): 0.000121 s⁻¹
fold improvement in on-rate over G6 (murine VEGF (mVEGF) [17]): 20 fold
IC50 (murine VEGF (mVEGF) [5]): 0.01 nM
fold improvement in IC50 over G6 (murine VEGF (mVEGF) [5]): 20 to 60 fold
Kd (murine VEGF (mVEGF) [6]): 0.021 nM
IC50 (murine VEGF (mVEGF) [23]): 0.02 nM
IC50 [24]: 0.02 nM
IC50 (human VEGF (hVEGF) [25]): 0.02 nM
kon (murine VEGF (mVEGF) [18]): 5.66e+06 M⁻¹ s⁻¹
